Like-named read-outs stand apart in the source and are kept apart here.
Columns and labels:
DAT = DAT (Rattus norvegicus (Rat), UniProt P23977); test: Dopamine Transporter Binding Assay ([3H]WIN 35428, rat striatal membranes)
[1] = mouse plasma
human SERT T497A mutant = human SERT T497A mutant (Homo sapiens (Human), UniProt P31645, T497A); test: cell-based; settings: COS-7, read-out: hSERT T497A Ki [S.E. interval] (nM)
[2] = selectivity ratio of Ki values, rat brain membranes

Chains of the proteins cited; added tags and fusions are not shown.
UniProt P23977, whole entry: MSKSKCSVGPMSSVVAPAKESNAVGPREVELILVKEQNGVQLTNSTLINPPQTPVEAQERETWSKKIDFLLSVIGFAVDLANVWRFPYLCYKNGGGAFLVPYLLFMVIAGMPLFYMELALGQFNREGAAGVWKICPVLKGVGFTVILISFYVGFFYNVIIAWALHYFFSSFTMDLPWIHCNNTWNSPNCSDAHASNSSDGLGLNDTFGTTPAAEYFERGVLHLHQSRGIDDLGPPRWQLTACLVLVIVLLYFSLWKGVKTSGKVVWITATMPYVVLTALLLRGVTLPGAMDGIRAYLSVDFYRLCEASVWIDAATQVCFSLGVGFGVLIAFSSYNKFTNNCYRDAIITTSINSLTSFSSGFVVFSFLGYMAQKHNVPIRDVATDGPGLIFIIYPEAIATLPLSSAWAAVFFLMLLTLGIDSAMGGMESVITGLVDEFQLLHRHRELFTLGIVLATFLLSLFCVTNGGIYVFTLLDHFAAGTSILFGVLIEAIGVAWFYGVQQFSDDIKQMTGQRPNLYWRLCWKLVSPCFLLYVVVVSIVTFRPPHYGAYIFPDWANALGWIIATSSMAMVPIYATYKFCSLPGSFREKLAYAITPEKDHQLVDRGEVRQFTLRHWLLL

## O=C(C[S+]([O-])C(c1ccc(Br)cc1)c1ccc(Br)cc1)NCCCc1ccccc1 (stereo not shown) [Compound 3g, 2-(Bis(4-bromophenyl)methylsulfinyl)-N-(3-phenylpropyl)acetamide]
DAT; ratio of binding affinities, rat brain membranes
  DAT:SERT ratio: 1.4

## O=C(CSC(c1ccc(Br)cc1)c1ccc(Br)cc1)NCCCc1ccccc1 [Compound 2x, 2-((Bis(4-bromophenyl)methyl)thio)-N-(3-phenylpropyl)acetamide]
DAT; [2]
  NET/DAT: ≥ 149
  SERT/DAT: ≥ 249

## CCCCNCC[S+]([O-])C(c1ccccc1)c1ccccc1 (stereo not shown) [Compound 5b, N-(2-(benzhydrylsulfinyl)ethyl)butan-1-amine]
DAT; [2]
  NET/DAT: 89

## O=C(CSC(c1ccc(Br)cc1)c1ccc(Br)cc1)NCCCCc1ccccc1 [Compound 2z, 2-((Bis(4-bromophenyl)methyl)thio)-N-(4-phenylbutyl)acetamide]
DAT
  SERT/DAT: ≥ 241

## Fc1ccc(C(SCCNCCCc2ccccc2)c2ccc(F)cc2)cc1 [Compound 4g, N-(2-((bis(4-fluorophenyl)methyl)thio)ethyl)-3-phenylpropan-1-amine]
[1]; 10 mg/kg
  terminal half-life (t1/2): approximately 1 hour
[1]; 10 mg/kg I.V.
  t1/2: 59.8 min

## CCCCNCCSC(c1ccccc1)c1ccccc1 [Compound 4e, N-(2-(benzhydrylthio)ethyl)butan-1-amine]
DAT; [2]
  NET/DAT: 36
  SERT/DAT: 18

## CNC(=O)CSC(c1ccccc1)c1ccccc1 [Compound 2g, 2-(Benzhydrylthio)-N-methylacetamide]
Human SERT T497A mutant
  inhibition at 100 µM: < 50%

Source: patent US10913711B2, “Potent and selective inhibitors of monoamine transporters; method of making; and use thereof” (priority 2013, dated 2021)
